From paper PMC5156906

How the values were obtained:
[1] = biological target: Calcineurin (CN; CNA residues 1-370 / CNB residues 1-169), His6 tag cleaved (human) (UniProt Q08209); assay: ITC; VP-ITC, 25 °C; 20 mM Tris pH 7.5, 100 mM NaCl, 1.0 mM CaCl2, 0.5 mM TCEP; NFAT peptides, PALB2 and SYDE2 titrated into CN in the cell; one set of sites model
[2] = biological target: Calcineurin (CN; CNA residues 1-370 / CNB residues 1-169), His6 tag cleaved (human) (UniProt Q08209); assay: crystal structure; CN:NFATc1 LxVP complex, 2.6 Å, hanging drop, 0.1 M HEPES pH 7.0, 15% PEG4000, 25 °C; molecular replacement with PDB 4F0Z
[3] = biological target: Calcineurin (CNA residues 1-370 bound to CNB residues 1-169) (human) (UniProt Q08209); assay: ITC; NFAT peptides, PALB2 or SYDE2 titrated into calcineurin in the cell; 25 °C; 20 mM Tris pH 7.5, 100 mM NaCl, 1.0 mM CaCl2, 0.5 mM TCEP; one set of sites model with n=1; averages of >=3 experiments (SYDE2: 2)
CNA_(1-348) (human) = CNA_(1-348) (human) (UniProt Q08209); assay: ITC; VP-ITC, 25 °C; 20 mM Tris pH 7.5, 100 mM NaCl, 1.0 mM CaCl2, 0.5 mM TCEP; NFAT peptides, PALB2 and SYDE2 titrated into CN in the cell; one set of sites model

NFATc1 LxVP peptide 383-400 showed a Kd [1] of 1800 nM and a stoichiometry N [2] of 1.

Work on “PALB2 (partner and localizer of BRCA2) fragment (from UniProt Q86YC2 178-295) (domain or fragment)” yielded a Kd [3] of 3100 nM.

“SYDE2 (synapse defective protein 1 homolog 2) residues 232-289 (from UniProt Q5VT97 232-289) (domain or fragment)” was tested, and the Kd [3] was 2600 nM.

B1: NFATc1 LxVP peptide 383-400 (peptide)
peptide: DDQYLAVPQHPYQWAKPK
In the case of B1, the fold weaker binding than to CNA/B (CNA_(1-348) (human)) is reported as 2 fold.
